Measured values reported in PubChem BioAssay AID463111 (Johns Hopkins Ion Channel Center, 2010).
The list shows a part of the results, in another mix than the full data. Active and inactive are the calls of the source.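 Rule for the calls: active = B-score of the integrated calcium signal more than 4 SD below the library mean, with starting fluorescence not abnormally high; inactive = the rest.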

Assay: RGS4 potentiators or activators, primary screen, cell-based, HEK293 M3R inducible RGS4, calcium flux (AID 463111);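 for B-score: negative B-score means reduced calcium response which marks RGS4 activation or potentiation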
Conditions: HEK293 M3R/inducible RGS4, carbachol calcium flux Fluo4, at 10 µM; hits give low values
Procedure, shortened: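 Assay system: HEK293 FlpIn-TREx cells, stable M3R, doxycycline-inducible RGS4 / Probe or stimulus: carbachol, ECmax concentration / Times: overnight RGS4 induction, 30 min dye load 37 °C, 20 min compound RT / Signal: kinetic calcium fluorescence imaging with Fluo4-AM dye, 2 µM / Measure: Agonist-evoked peak-minus-minimum fluorescence over baseline, integrated ratio, B score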

Structure (SMILES) | outcome | B-score
O=C(NC1CCS(=O)(=O)C1)NP(=S)(Oc1ccccc1)Oc1ccccc1 (configuration not stated) | inactive | –
CCOP1(=S)c2c(C)nn(CCC#N)c2N=C(c2ccc(F)cc2)N1C (configuration not stated) | inactive | –
N#CCCN(C(=O)COC(=O)C(O)(c1ccccc1)c1ccccc1)c1ccc(F)cc1 | inactive | –
CC1=NCCc2c1[nH]c1ccccc21.O=[N+]([O-])c1cc([N+](=O)[O-])c(O)c([N+](=O)[O-])c1 | inactive | –
CN(C(=O)Cc1ccc(Cl)c(Cl)c1)[C@H]1CC[C@@]2(CCCO2)C[C@@H]1N1CCCC1 | inactive | –
O=[N+]([O-])c1ccc2c(c1)nnn2O | inactive | –
CN(C)C(=O)c1cc([N+](=O)[O-])cc2c1-c1c(cc([N+](=O)[O-])cc1[N+](=O)[O-])C2=O | inactive | –
NC(=O)Nc1ccc([As](=O)(O)O)cc1 | inactive | –
Nc1ccccc1[As](=O)(O)c1ccccc1 | inactive | –
O=C(O)COc1ccc([As](=O)(O)O)cc1[N+](=O)[O-] | inactive | –
O=P(Nc1nccs1)(Oc1ccccc1)Oc1ccccc1 | inactive | –
O=P(Nc1nccs1)(c1ccccc1)c1nc2ccccc2s1 (configuration not stated) | inactive | –
CCOP1(=S)c2c(C)nn(CCC#N)c2N=C(c2ccccc2F)N1C (configuration not stated) | inactive | –
O=C(O)c1cccc(Nc2c([N+](=O)[O-])cc([N+](=O)[O-])cc2[N+](=O)[O-])c1 | inactive | –
CS(=O)(=O)c1cc([N+](=O)[O-])c2no[n+]([O-])c2c1 | inactive | –
CCOP(=O)(Nc1cccc2ccccc12)OCC | inactive | –
Nc1cccc2c([As](=O)(O)O)cccc12 | inactive | –
Cc1ccc(NCCc2c([N+](=O)[O-])cc([N+](=O)[O-])cc2[N+](=O)[O-])cc1 | inactive | –
Cc1cc(C)cc(OP(C)(=O)Nc2ccccn2)c1 (configuration not stated) | inactive | –
CP(=O)(Nc1cccc(Br)c1)Oc1ccccc1 (configuration not stated) | inactive | –
Cc1ccc(C)c(NP(C)(=O)Oc2ccccc2)c1 (configuration not stated) | inactive | –
CCCOP(=S)(Nc1nc(N)cc(=O)[nH]1)OCCC | inactive | –
Cc1cc(C)cc(OP(C)(=O)Nc2ccc(C)cc2C)c1 (configuration not stated) | inactive | –

Structure (SMILES) | outcome | B-score
Cc1cccc(OCC(=O)OC2CN3CCC2CC3)c1 (configuration not stated) | inactive | –
O=[As](O)(c1cccc(O)c1)c1cccc(O)c1 | inactive | –
CCOC(=O)c1ccc(NP(C)(=O)Oc2cc(C)cc(C)c2)cc1 (configuration not stated) | inactive | –
CS(=O)(=O)c1ccc(Cl)c(NC(=O)COC(=O)C(O)(c2ccccc2)c2ccccc2)c1 | inactive | –
COc1ccccc1OP(C)(=O)Nc1cccc(Br)c1 (configuration not stated) | inactive | –
O=[As](O)(O)c1cccnc1 | inactive | –
COc1cc(C(=O)NCC2(N3CCOCC3)CCCCC2)cc(Cl)c1OC(C)C | inactive | –
CC(C)/C=N\N=C(\N)N[N+](=O)[O-] | inactive | –
CN(C(=O)Cc1ccc(Cl)c(Cl)c1)[C@@H]1CCCC[C@H]1N1CCCC1 | inactive | –
CC1(CBr)Cn2c(nc3ccccc3c2=O)S1 (configuration not stated) | inactive | –
O=[As](O)(c1ccccc1Br)c1ccccc1Br | inactive | –
O=[N+]([O-])c1cc([N+](=O)[O-])c(-c2cnn(-c3ccccc3)c2)c([N+](=O)[O-])c1 | inactive | –
COc1ccccc1CNC(=O)COC(=O)C(O)(c1ccccc1)c1ccccc1 | inactive | –
CC(C)(C)C(=O)NC(Sc1ncccn1)C(Cl)(Cl)Cl (configuration not stated) | inactive | –
Clc1n[nH]nc1-c1nn[nH][15n]1 | inactive | –
O=[N+]([O-])c1cc([N+](=O)[O-])c(-n2nnc3ccccc32)c([N+](=O)[O-])c1 | inactive | –
CCOP(=O)(NC(=NC(C)c1ccccc1)NC(C)c1ccccc1)OCC (configuration not stated) | inactive | –
O=P1(Nc2ccccn2)COc2ccccc2OC1 | inactive | –
CCC1=CC2Cc3nc4ccc(Cl)cc4c(N)c3C(C1)C2 (configuration not stated) | inactive | –
CCOP(=O)(Nc1ccc(C)cn1)OCC | inactive | –
CN(CCCl)Cc1cc(Cl)c(NC2=NCCN2)c(Cl)c1 | inactive | –
CCCOc1ccc(NP(C)(=O)Oc2ccc(Cl)cc2)cc1 (configuration not stated) | inactive | –
Nc1cccc([As](=O)(O)c2ccccc2)c1 | inactive | –

Structure (SMILES) | outcome | B-score
CP(=O)(Nc1ccc(SC(F)(F)F)cc1)Oc1ccccc1 (configuration not stated) | inactive | –
O=[As](O)(c1cccs1)c1cccs1 | inactive | –
Cc1ccc(OCC(=O)OC2CN3CCC2CC3)cc1 (configuration not stated) | inactive | –
O=P1(Nc2ccc(Br)cn2)COc2ccccc2OC1 | inactive | –
COc1ccccc1OP(C)(=O)Nc1c(C)cccc1C (configuration not stated) | inactive | –
CN1CCCCC1COC(=O)C1(O)c2ccccc2CCc2ccccc21 (configuration not stated) | – | active: -7.78
O=P1(Nc2ncccn2)COc2ccccc2OC1 | inactive | –
CCOC(=O)C(CC)C1=NC(C)(C)Cc2ccccc21.O=[N+]([O-])c1cc([N+](=O)[O-])c(O)c([N+](=O)[O-])c1 (configuration not stated) | inactive | –
CN(C)C1(CNC(=O)c2ccc(S(C)(=O)=O)cc2)CCCCC1 | inactive | –
O=[N+]([O-])c1cc([N+](=O)[O-])c(Nc2nnnn2CCO)c([N+](=O)[O-])c1 | inactive | –
O=C(/C=C/c1ccccc1)OC1CN2CCC1CC2 (configuration not stated) | inactive | –
CC1CCC(C(C)C)C(OP(=O)(Nc2ccccn2)c2ccccc2)C1 (configuration not stated) | inactive | –
Cc1ccc(C(=O)OC2CN3CCC2CC3)cc1 (configuration not stated) | inactive | –
Cc1nn(-c2ccccc2)c2c1P(=O)(N1CCOCC1)N(C)C(c1ccccc1)=N2 (configuration not stated) | inactive | –
COc1cc(C2NCCC3(OCCO3)C2(C)C)cc(OC)c1OC.O=[N+]([O-])c1cc([N+](=O)[O-])c(O)c([N+](=O)[O-])c1 (configuration not stated) | inactive | –
COc1ccccc1OP(C)(=O)Nc1ccccc1 (configuration not stated) | inactive | –
O=P(Nc1ccccn1)(c1cccc2ccccc12)c1cccc2ccccc12 | inactive | –
Cc1cc(SC(NC=O)C(Cl)(Cl)Cl)ncn1 (configuration not stated) | inactive | –
O=[N+]([O-])c1ccc(Nc2ccc(Oc3ccc([N+](=O)[O-])cc3[N+](=O)[O-])cc2)c([N+](=O)[O-])c1 | inactive | –
CP(=O)(Nc1ccccc1Br)Oc1ccccc1 (configuration not stated) | inactive | –
CP(=S)(Nn1cnnc1)Oc1ccccc1 (configuration not stated) | inactive | –
CCOC(=O)Nc1cccc([As](=O)(O)O)c1 | inactive | –
Cc1cc(SC(NC(=O)c2ccccc2)C(Cl)(Cl)Cl)nc(C(C)C)n1 (configuration not stated) | inactive | –

Structure (SMILES) | outcome | B-score
CCCCOc1ccc(C(=O)NCC2(N3CCCCC3)CCCCC2)cc1OC | inactive | –
CCOC(=O)Nc1ccc([As](=O)(O)O)c(O)c1 | inactive | –
CCC(C)N(CC(C)C)C(=S)SC(NC(C)=O)C(Cl)(Cl)Cl (configuration not stated) | inactive | –
CP(=O)(Nc1ccccn1)Oc1ccc(Cl)cc1 (configuration not stated) | inactive | –
O=C(OC1CN2CCC1CC2)c1cccc([N+](=O)[O-])c1 (configuration not stated) | inactive | –
CCOP(C)(=S)SCC(=O)NC(C)C(=O)O (configuration not stated) | inactive | –
CCOC(=O)c1ccc(NP(C)(=O)Oc2ccc(OC)cc2)cc1 (configuration not stated) | inactive | –
CCOC(=O)c1ccc(NC(=O)C(C)(CCl)SC)cc1 (configuration not stated) | inactive | –
O=[N+]([O-])c1cc([N+](=O)[O-])c(O)c([N+](=O)[O-])c1.c1ccc(Oc2ccncc2)cc1 | inactive | –
Cc1cc(C)cc(OP(C)(=O)Nc2ccc(SC(F)(F)F)cc2)c1 (configuration not stated) | inactive | –
O=C(Nc1ccncc1[N+](=O)[O-])c1ccc([N+](=O)[O-])cc1[N+](=O)[O-] | inactive | –
O=C(COc1ccccc1)OC1CN2CCC1CC2 (configuration not stated) | inactive | –
CP(=O)(NC(=O)Nc1ccccc1)Oc1ccccc1 (configuration not stated) | inactive | –
CCc1ccc(OP(C)(=O)N2CCN(c3ccc([N+](=O)[O-])cc3)CC2)cc1 (configuration not stated) | inactive | –
CP(=O)(Oc1ccccc1)OC(c1ccccc1)C(F)(F)F (configuration not stated) | inactive | –
COP1(=S)c2c(C)nn(CCC#N)c2N=C(c2ccc(F)cc2)N1C (configuration not stated) | inactive | –
Cc1cccc(C)c1OP(C)(=O)Nc1ccc(SC(F)(F)F)cc1 (configuration not stated) | inactive | –
CP(=O)(Nc1ccc(SC(F)(F)F)cc1)Oc1ccc(Cl)cc1 (configuration not stated) | inactive | –
COc1ccc(N/C(=N/P(=O)(N2CCOCC2)N2CCOCC2)N2CCOCC2)cc1 | inactive | –
COc1cc(I)ccc1[As](=O)(O)O | inactive | –
COc1ccc2nc(NP(=O)(c3ccccc3)c3ccccc3)sc2c1 | inactive | –
Cc1c2c(nc3ccccc13)SC(C(Cl)Cl)C2 (configuration not stated) | inactive | –
CCN(CC)CCCOC(=O)C(O)(c1ccccc1)c1ccccc1 | – | active: -8.74

Structure (SMILES) | outcome | B-score
Cc1cc(=O)[nH]c(N[N+](=O)[O-])n1 | inactive | –
COc1ccc(OP(C)(=O)Nc2cccc(F)c2)cc1 (configuration not stated) | inactive | –
O=[N+]([O-])c1cc([N+](=O)[O-])c(-c2ccn[nH]2)s1 | inactive | –
COc1ccccc1OP(C)(=O)Nc1cc(Cl)ccc1C (configuration not stated) | inactive | –
CC(C)NC(=O)NP(=O)(Oc1ccccc1)Oc1ccccc1 | inactive | –
CCN(CC)C(=S)SC(NC=O)C(Cl)(Cl)Cl (configuration not stated) | inactive | –
Cc1cc(C)cc(OP(C)(N)=O)c1 (configuration not stated) | inactive | –
ClCCSc1nnc(-c2cccnc2)o1 | inactive | –
CCOC(=O)c1ccc(NP(C)(=O)Oc2ccccc2)cc1 (configuration not stated) | inactive | –
CC(C)c1ccc(OP(=O)(Nc2ccccn2)Oc2ccccc2F)cc1 (configuration not stated) | inactive | –
Cc1ccc(NP(C)(=O)Oc2ccccc2)c(C)c1 (configuration not stated) | inactive | –
COc1ccccc1OP(C)(=O)Nc1ccc(C)cc1 (configuration not stated) | inactive | –
Cc1cccc(C)c1OP(C)(N)=O (configuration not stated) | inactive | –
Cc1ccc(OP(=O)(Nc2ccc([N+](=O)[O-])cn2)Oc2ccc(C)cc2)cc1 | inactive | –
CC(C)(C)c1ccc(OP(C)(=O)Nc2ccc(SC(F)(F)F)cc2)cc1 (configuration not stated) | – | active: -9.33
O=[N+]([O-])c1ccc2c(c1)C=Nc1ccccc1O2 | inactive | –
Cc1ccc2nc3c(c(C)c2c1)CC(C(Cl)Cl)S3 (configuration not stated) | inactive | –
O=[N+]([O-])c1cc([N+](=O)[O-])c(Nc2cccnc2)c([N+](=O)[O-])c1 | inactive | –
O=[As](O)(c1ccc(O)cc1)c1ccccc1O | inactive | –
C[As](=O)(O)c1cccc(C(=O)O)c1 | inactive | –
